Values quoted from earlier work, collected in US20180296559A1, “TREATMENT OF AIRWAY SMOOTH MUSCLE DYSFUNCTION” (priority 2016, published 2018).

Test system: ALK induced lung cancer
Settings: 82 patients, cited from earlier work

Compound: C[C@@H](Oc1cc(-c2cnn(C3CCNCC3)c2)cnc1N)c1c(Cl)ccc(F)c1Cl [crizotinib]
- progression free survival at 6 months (6 months): 72%
- disease control rate at 8 weeks (8 weeks): 87%
- overall response rate (early results): 57%
